Experimental data: patent US20150368338A1 (Janssen / Centocor, published 2015)

The binders below were run against T1, IFN-αB2 (human, UniProt P32881 24-189) (assay: ProteOn, one antigen concentration).
T1 construct: also called IFN-α8; IFN alpha B2

Binder	Kd [nM]
IFWM3344 (antibody, V domains shown, VH IFWH624, VL IFWL998; converted mAb; also called IFWB3079) VH: EVQLVQSGAEVKKPGESLKISCKGSGYSFTSYWIGWVRQMPGKGLEWMGIIDPSDSDTAYSPSFQGQVTISADKSISTAYLQWSSLKASDTAMYYCARHPGLNWAPDFDYWGQGTLVTVSS VL: DIQMTQSPSSLSASVGDRVTITCRASQSISKFLNWYQQKPGKAPKLLIYFASSLQSGVPSRFSGSGSGTDFTLTISSLQPEDFATYYCQQSNTLPFTFGQGTKVEIK	0.08
IFWM3325 (antibody, V domains shown, VH IFWH591, VL IFWL1060; converted mAb; also called IFWB3060) VH: EVQLVQSGAEVKKPGESLKISCKGSGYSFTSYWIGWVRQMPGKGLEWMGIIDPSDSDTRYSPSFQGQVTISADKSISTAYLQWSSLKASDTAMYYCARHPGLNWAPDFDYWGQGTLVTVSS VL: DIQMTQSPSSLSASVGDRVTITCRASQSIRNSLNWYQQKPGKAPKLLIKWASSLQSGVPSRFSGSGSGTDFTLTISSLQPEDFATYYCQQLYDWPLTFGQGTKVEIK	0.006
IFWM3350 (antibody, V domains shown, VH IFWH624, VL IFWL1009; converted mAb; also called IFWB3085) VH: EVQLVQSGAEVKKPGESLKISCKGSGYSFTSYWIGWVRQMPGKGLEWMGIIDPSDSDTAYSPSFQGQVTISADKSISTAYLQWSSLKASDTAMYYCARHPGLNWAPDFDYWGQGTLVTVSS VL: DIQMTQSPSSLSASVGDRVTITCRASQSIDDFLNWYQQKPGKAPKLLIYFASSLQSGVPSRFSGSGSGTDFTLTISSLQPEDFATYYCQQSHTLPLTFGQGTKVEIK	0.033
IFWM3342 (antibody, V domains shown, VH IFWH624, VL IFWL992; converted mAb; also called IFWB3077) VH: EVQLVQSGAEVKKPGESLKISCKGSGYSFTSYWIGWVRQMPGKGLEWMGIIDPSDSDTAYSPSFQGQVTISADKSISTAYLQWSSLKASDTAMYYCARHPGLNWAPDFDYWGQGTLVTVSS VL: DIQMTQSPSSLSASVGDRVTITCRASQSIGSFLNWYQQKPGKAPKLLIYFASSLQSGVPSRFSGSGSGTDFTLTISSLQPEDFATYYCQQSYSIPITFGQGTKVEIK	0.043
IFWM3349 (antibody, V domains shown, VH IFWH624, VL IFWL1007; converted mAb; also called IFWB3084) VH: EVQLVQSGAEVKKPGESLKISCKGSGYSFTSYWIGWVRQMPGKGLEWMGIIDPSDSDTAYSPSFQGQVTISADKSISTAYLQWSSLKASDTAMYYCARHPGLNWAPDFDYWGQGTLVTVSS VL: DIQMTQSPSSLSASVGDRVTITCRASQSIGKSLNWYQQKPGKAPKLLIYFASSLQSGVPSRFSGSGSGTDFTLTISSLQPEDFATYYCQQSYDFPLTFGQGTKVEIK	0.008
IFWM3321 (antibody, V domains shown, VH IFWH591, VL IFWL1048; converted mAb; also called IFWB3056) VH: EVQLVQSGAEVKKPGESLKISCKGSGYSFTSYWIGWVRQMPGKGLEWMGIIDPSDSDTRYSPSFQGQVTISADKSISTAYLQWSSLKASDTAMYYCARHPGLNWAPDFDYWGQGTLVTVSS VL: DIQMTQSPSSLSASVGDRVTITCRASQSIDGALNWYQQKPGKAPKLLIYFASSLQSGVPSRFSGSGSGTDFTLTISSLQPEDFATYYCQQAYDFPLTFGQGTKVEIK	0.045
IFWM3341 (antibody, V domains shown, VH IFWH624, VL IFWL991; converted mAb; also called IFWB3076) VH: EVQLVQSGAEVKKPGESLKISCKGSGYSFTSYWIGWVRQMPGKGLEWMGIIDPSDSDTAYSPSFQGQVTISADKSISTAYLQWSSLKASDTAMYYCARHPGLNWAPDFDYWGQGTLVTVSS VL: DIQMTQSPSSLSASVGDRVTITCRASQSINRFLNWYQQKPGKAPKLLIYAASSLQSGVPSRFSGSGSGTDFTLTISSLQPEDFATYYCQQAIDLPFTFGQGTKVEIK	0.007
IFWM3348 (antibody, V domains shown, VH IFWH624, VL IFWL1006; converted mAb; also called IFWB3083) VH: EVQLVQSGAEVKKPGESLKISCKGSGYSFTSYWIGWVRQMPGKGLEWMGIIDPSDSDTAYSPSFQGQVTISADKSISTAYLQWSSLKASDTAMYYCARHPGLNWAPDFDYWGQGTLVTVSS VL: DIQMTQSPSSLSASVGDRVTITCRASQSIGGFLNWYQQKPGKAPKLLIYFASSLQSGVPSRFSGSGSGTDFTLTISSLQPEDFATYYCQQSYSLPITFGQGTKVEIK	0.058
IFWM3347 (antibody, V domains shown, VH IFWH624, VL IFWL1004; converted mAb; also called IFWB3082) VH: EVQLVQSGAEVKKPGESLKISCKGSGYSFTSYWIGWVRQMPGKGLEWMGIIDPSDSDTAYSPSFQGQVTISADKSISTAYLQWSSLKASDTAMYYCARHPGLNWAPDFDYWGQGTLVTVSS VL: DIQMTQSPSSLSASVGDRVTITCRASQSIAEFLNWYQQKPGKAPKLLIYFASSLQSGVPSRFSGSGSGTDFTLTISSLQPEDFATYYCQQSIDFPLTFGQGTKVEIK	0.041
IFWM3345 (antibody, V domains shown, VH IFWH624, VL IFWL1000; converted mAb; also called IFWB3080) VH: EVQLVQSGAEVKKPGESLKISCKGSGYSFTSYWIGWVRQMPGKGLEWMGIIDPSDSDTAYSPSFQGQVTISADKSISTAYLQWSSLKASDTAMYYCARHPGLNWAPDFDYWGQGTLVTVSS VL: DIQMTQSPSSLSASVGDRVTITCRASQSITNFLNWYQQKPGKAPKLLIYFASSLQSGVPSRFSGSGSGTDFTLTISSLQPEDFATYYCQQSLDFPLTFGQGTKVEIK	0.009
IFWM3340 (antibody, V domains shown, VH IFWH624, VL IFWL983; converted mAb; also called IFWB3075) VH: EVQLVQSGAEVKKPGESLKISCKGSGYSFTSYWIGWVRQMPGKGLEWMGIIDPSDSDTAYSPSFQGQVTISADKSISTAYLQWSSLKASDTAMYYCARHPGLNWAPDFDYWGQGTLVTVSS VL: DIQMTQSPSSLSASVGDRVTITCRASQSIDGSLNWYQQKPGKAPKLLIYFASSLQSGVPSRFSGSGSGTDFTLTISSLQPEDFATYYCQQSYDFPLTFGQGTKVEIK	0.008

Second part, the binder after the results:

Kd [nM]	Binder
0.076	IFWM3319 (antibody, V domains shown, VH IFWH591, VL IFWL1041; converted mAb; also called IFWB3054) VH: EVQLVQSGAEVKKPGESLKISCKGSGYSFTSYWIGWVRQMPGKGLEWMGIIDPSDSDTRYSPSFQGQVTISADKSISTAYLQWSSLKASDTAMYYCARHPGLNWAPDFDYWGQGTLVTVSS VL: DIQMTQSPSSLSASVGDRVTITCRASQSITGFLNWYQQKPGKAPKLLIYAASSLQSGVPSRFSGSGSGTDFTLTISSLQPEDFATYYCQQSHDFPLTFGQGTKVEIK
0.044	IFWM3346 (antibody, V domains shown, VH IFWH624, VL IFWL1001; converted mAb; also called IFWB3081) VH: EVQLVQSGAEVKKPGESLKISCKGSGYSFTSYWIGWVRQMPGKGLEWMGIIDPSDSDTAYSPSFQGQVTISADKSISTAYLQWSSLKASDTAMYYCARHPGLNWAPDFDYWGQGTLVTVSS VL: DIQMTQSPSSLSASVGDRVTITCRASQSIGDFLNWYQQKPGKAPKLLIYFASSLQSGVPSRFSGSGSGTDFTLTISSLQPEDFATYYCQQALDFPLTFGQGTKVEIK
0.06	IFWM3343 (antibody, V domains shown, VH IFWH624, VL IFWL997; converted mAb; also called IFWB3078) VH: EVQLVQSGAEVKKPGESLKISCKGSGYSFTSYWIGWVRQMPGKGLEWMGIIDPSDSDTAYSPSFQGQVTISADKSISTAYLQWSSLKASDTAMYYCARHPGLNWAPDFDYWGQGTLVTVSS VL: DIQMTQSPSSLSASVGDRVTITCRASQSIGSALNWYQQKPGKAPKLLIYFASSLQSGVPSRFSGSGSGTDFTLTISSLQPEDFATYYCQQSYDFPLTFGQGTKVEIK
0.026	IFWM3320 (antibody, V domains shown, VH IFWH591, VL IFWL1047; converted mAb; also called IFWB3055) VH: EVQLVQSGAEVKKPGESLKISCKGSGYSFTSYWIGWVRQMPGKGLEWMGIIDPSDSDTRYSPSFQGQVTISADKSISTAYLQWSSLKASDTAMYYCARHPGLNWAPDFDYWGQGTLVTVSS VL: DIQMTQSPSSLSASVGDRVTITCRASQSINGVLNWYQQKPGKAPKLLIYFASSLQSGVPSRFSGSGSGTDFTLTISSLQPEDFATYYCQQSHDFPLTFGQGTKVEIK
0.056	IFWM3322 (antibody, V domains shown, VH IFWH591, VL IFWL1051; converted mAb; also called IFWB3057) VH: EVQLVQSGAEVKKPGESLKISCKGSGYSFTSYWIGWVRQMPGKGLEWMGIIDPSDSDTRYSPSFQGQVTISADKSISTAYLQWSSLKASDTAMYYCARHPGLNWAPDFDYWGQGTLVTVSS VL: DIQMTQSPSSLSASVGDRVTITCRASQSIADFLNWYQQKPGKAPKLLIYFASSLQSGVPSRFSGSGSGTDFTLTISSLQPEDFATYYCQQSHSFPLTFGQGTKVEIK
